{
  "sequences": {"note": "The chains behind the UniProt entries cited, without tags or fusion partners.", "UniProt P35372, whole entry": "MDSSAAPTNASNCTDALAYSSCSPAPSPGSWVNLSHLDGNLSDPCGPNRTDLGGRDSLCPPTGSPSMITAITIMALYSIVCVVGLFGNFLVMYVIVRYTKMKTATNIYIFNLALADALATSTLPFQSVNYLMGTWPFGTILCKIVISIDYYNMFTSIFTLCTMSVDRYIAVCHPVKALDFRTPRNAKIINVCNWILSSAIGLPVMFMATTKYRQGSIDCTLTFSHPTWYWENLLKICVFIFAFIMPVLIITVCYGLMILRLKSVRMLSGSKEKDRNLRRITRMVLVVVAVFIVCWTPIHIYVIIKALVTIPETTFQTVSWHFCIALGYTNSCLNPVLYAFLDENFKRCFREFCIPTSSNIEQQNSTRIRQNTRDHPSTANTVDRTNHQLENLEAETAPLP"},
  "source": "patent US20260008754A1",
  "about": "“N-SUBSTITUTED DERIVATIVES OF L-(L-PHENYL-3-ARYL)-LFF-PYRAZOL-4-YL)[…], METHOD FOR THEIR PRODUCTION AND THEIR APPLICATIONS” (priority 2022, published 2026)",
  "target": "μ opioid receptor (Homo sapiens, UniProt P35372)",
  "test": "μ opioid receptor agonism, G protein signaling pathway",
  "format": "cell-based",
  "settings": "read-out: EC50 (G protein)",
  "data": [
    {"smiles": "CN(CCc1ccnn1C)Cc1cn(-c2ccccc2)nc1-c1ccccc1", "values": [
      {"measurement": "EC50", "result": 538, "unit": "nM"}
    ]}
  ]
}
